Results reported in patent US11779630B2, “Peptides and methods of using the same” (SERPIN PHARMA, LLC, priority 2020, dated 2023).

Biological target: T1, Recombinant LRP1 (Cluster II) (Homo sapiens, UniProt Q07954)
T1 sequence (Q07954 786-1165 limits assumed): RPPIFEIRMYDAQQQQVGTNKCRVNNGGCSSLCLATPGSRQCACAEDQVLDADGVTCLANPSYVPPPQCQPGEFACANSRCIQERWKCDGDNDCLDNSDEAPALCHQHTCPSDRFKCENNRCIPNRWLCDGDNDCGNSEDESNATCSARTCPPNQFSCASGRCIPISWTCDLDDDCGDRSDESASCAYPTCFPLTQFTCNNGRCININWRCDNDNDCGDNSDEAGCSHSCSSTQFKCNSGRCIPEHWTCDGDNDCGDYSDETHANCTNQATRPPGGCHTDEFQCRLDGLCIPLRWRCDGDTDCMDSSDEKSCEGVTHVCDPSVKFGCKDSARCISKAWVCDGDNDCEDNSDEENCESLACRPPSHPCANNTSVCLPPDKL
Assay: LRP1 binding assay, ELISA plate with biotinylated peptides
Conditions: biotinylated peptide, increasing concentrations, streptavidin HRP (FIG. 3)

## FPKMVPQFNTELKIFPEVNIK (FPKMVPQFNTELKIFPEVNIK; peptide derivative) [SP34, reference compound]
  binding to LRP1 Cluster II: did not bind to LRP1 Cluster II

## V K F N K P F V F L M I E Q N T K (VKFNKPFVFLMIEQNTK; listed as Homo sapiens) [SP16]
  binding to LRP1 Cluster II: capable of binding to LRP1 Cluster II
